Experimental findings from ChEMBL document CHEMBL3232718, “Design, synthesis, and characterization of novel, nonquaternary reactivators of GF-inhibited human acetylcholinesterase” (2014) are described below.

The nature of this data set: Dissociation constant, pKa of the compound by capillary electrophoresis analysis.

Consider `O/N=C/c1ccc(OCC2CCN(Cc3ccccc3)CC2)nc1`, for which the pKa (as a rule, the pH at which an ionisable group is half protonated) was 11.2.
For `O/N=C/c1cnc(OCC2CCN(Cc3ccccc3)CC2)nc1` the value was 10.7.
